Values of other authors, collected in US9655905B2, “Treatment of sickle cell disease” (KING ABDULLAH UNIVERSITY OF SCIENCE AND TECHNOLOGY, priority 2011, dated 2017).

Conditions: rat, in vivo

SMILES: O=S(=O)(c1cccc2c(O)nccc12)N1CCCNCC1 [Hydroxyfasudil, 5-(1,4-diazepane-1-sulfonyl)isoquinolin-1-ol]
- pulmonary hypertension secondary to left ventricular dysfunction: attenuate
